Species: Oryctolagus cuniculus
Test: Selectivity ratio of IC50 for inhibition of SOAT2 in New Zealand white rabbit intestinal microsomes to IC50 for inhibition of SOAT1 in arterial homogenates isolated from 1% cholesterol fed New Zealand white rabbit

`CC(C)c1cccc(C(C)C)c1NC(=O)CCCCCSc1nc2ncccc2o1` was tested, and the Ratio IC50 was 5.6.
